Values quoted from earlier work, collected in patent publication US11964021B2, “Bacterially derived, intact minicells for delivery of therapeutic agents to brain tumors” (EnGeneIC Molecular Delivery Pty Ltd, priority 2011, dated 2024).

Conditions: kinetics, FIG. 2A of MacDiarmid et al. Cancer Cell (2007); cited from earlier work

Fluoro-paclitaxel [flouro-paclitaxel]
leakage of drug out of intact minicells once packaged: did not leak out
